High-throughput results: PubChem BioAssay, ICCB-Longwood Screening Facility, Harvard Medical School
This excerpt belongs to a sample that is enriched for hits.
HCMV UL50-53 inh – cytomegalovirus nuclear egress complex inhibition | inhibition, % (concentration not given with the values) | actives 0.15% (n = 190,000) | HTRF UL50-UL53 interaction, normalized percent inhibition; in the data active = inhibition above about 27%, passing the limit was not always enough
GIV Gai3 FP – inhibitors of GIV GBA-motif binding to rat Galpha-i3. actives 0.42% (n = 210,000). Galpha-i3/FITC-GIV peptide fluorescence polarization, 90 min; active compounds read low; scaled: aluminum fluoride 0%, vehicle 100%. AID 1224905. percent of control (FP), % (no concentration beside the values). P08753;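 active means replicate mean at 85% of control or lower, very high polarization wells dropped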;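 further: wells of about 15 µL received 100 nL stock; the first replicate is given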
GIV Gai FP conf – GIV-Galpha-i3 inhibition, FP confirmation | shares compounds with GIV Gai3 FP | FITC-GIV peptide binding to Galphai3, fluorescence polarization; hits give low values | fluorescence polarization, mP at 100 µM | actives 38% (n = 580) | AID 1259350;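 active = inhibition score of 15 or more, meaning 100 minus mean polarization as percent of control over three replicates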;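 note: lower mP means peptide displaced from Galphai3 so more inhibition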
GIV Gai AS conf – confirmation of inhibitors of GIV binding to human Galpha-i3 | shares compounds with GIV Gai3 FP | AlphaScreen Galphai3-GIV binding, purified proteins, 90 min; hits give low values | AlphaScreen counts at 100 µM | actives 39% (n = 580) | AID 1259351;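 active = inhibition score at or above a set limit, where the score is 100 minus the three-replicate mean percent of control signal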
* = called active by the depositor; · = no result given.

entry	Molecule	HCMV UL50-53 inh	GIV Gai3 FP	GIV Gai FP conf	GIV Gai AS conf
1	CCOC(=O)C1=C(C)N=c2s/c(=C\c3cc([N+](=O)[O-])ccc3N3CCOCC3)c(=O)n2C1c1ccc(OC)cc1 (stereo not given)	-3	104	·	·
2	CC(C)c1cc(-c2nnc3sc(-c4ccncc4)nn23)n[nH]1	-23	85*	63	12549*
3	COc1ccccc1-c1nn2c(-c3cc(C(C)C)[nH]n3)nnc2s1	0	102	·	·
4	CC1CC(C)CN(S(=O)(=O)c2ccc(C(=O)NCc3ccccc3)cc2)C1 (stereo not given)	-1	·	·	·
5	CC(C)(C)SCC(O)Cn1c2ccc(Cl)cc2c2cc(Cl)ccc21 (stereo not given)	·	105	·	·
6	CCOC(=O)Cc1csc(-c2ccc(F)cc2F)n1	6	103	·	·
7	Cc1cccc(C)c1NC(=O)CCCSc1nnc(-c2ccccc2)o1	-2	·	·	·
8	Cc1cc(OCc2nc(CC(=O)NC3CC3)cs2)ccc1Cl	-13	123	·	·
9	Cc1cc(OCc2nc(CC(=O)NCC(C)C)cs2)ccc1Cl	-19	96	69	41855
10	COc1ccc(CC(=O)N2CC(C)OC(C)C2)cc1 (stereo not given)	-12	107	·	·
11	COC(=O)c1ccc(-c2ccco2)n1CC(=O)Nc1cccc(C)c1C	-20	108	·	·
12	O=C(O)C(c1ccccc1)N1C(=O)/C(=C/c2ccncc2)SC1=S (stereo not given)	·	80*	76	50305
13	CC(C)C(C(=O)O)N1C(=O)/C(=C/c2ccccc2)SC1=S (stereo not given)	-72	·	·	·
14	O=C(O)C1=CC(=C(c2ccc(O)c(C(=O)O)c2)c2ccc(O)c(C(=O)O)c2)C=CC1=O	123*	-19*	17*	2586*
15	Nc1ccc(O)c(C(=O)O)c1	-68	91	·	·

Gathered by group: those above with an NH in an aromatic ring.
entry	Molecule	HCMV UL50-53 inh	GIV Gai3 FP	GIV Gai FP conf	GIV Gai AS conf
2	CC(C)c1cc(-c2nnc3sc(-c4ccncc4)nn23)n[nH]1	-23	85*	63	12549*
3	COc1ccccc1-c1nn2c(-c3cc(C(C)C)[nH]n3)nnc2s1	0	102	·	·

Profiles from above.
`COc1ccc(CC(=O)N2CC(C)OC(C)C2)cc1` (stereo not given) is listed with HCMV UL50-53 inh = -12; GIV Gai3 FP = 107; GIV Gai FP conf = ·; GIV Gai AS conf = ·
`CC1CC(C)CN(S(=O)(=O)c2ccc(C(=O)NCc3ccccc3)cc2)C1` (stereo not given) is listed with HCMV UL50-53 inh = -1; GIV Gai3 FP = ·; GIV Gai FP conf = ·; GIV Gai AS conf = ·

Next section
entry	Molecule	HCMV UL50-53 inh	GIV Gai3 FP	GIV Gai FP conf	GIV Gai AS conf
16	Fc1cccc(-c2noc(-c3cc(N4CCOCC4)nc4ccccc34)n2)c1	·	105	·	·
17	CCOc1ccc2c(c1)C(=O)c1cc(OCC(=O)OC)ccc1-2	·	128	·	·
18	CCCOc1ccc2c(c1)C(=O)c1cc(OCC(=O)O)ccc1-2	-181	80*	73	54581
19	CCOc1ccc(N=Cc2c[nH]c3ccc(Br)cc23)cc1	9	·	·	·
20	CCCCSc1nnc2c(n1)OC(c1cccs1)Nc1ccccc1-2 (stereo not given)	-24	108	·	·
21	CCCCSc1nnc2c(n1)OC(c1ccc(Br)s1)Nc1ccccc1-2 (stereo not given)	-17	40*	89	19457
22	CCCN(CCC)C(=O)c1cc2ccccc2cc1O	-18	·	·	·
23	CCCN1CC=C2C(C#N)=C(N)C(C#N)(C#N)C(c3ccc(OC)cc3)C2C1 (stereo not given)	·	111	·	·
24	CCCN1CC=C2C(C#N)=C(N)C(C#N)(C#N)C(c3ccc(OCC(N)=O)cc3)C2C1 (stereo not given)	-19	85*	71	23647
25	O=C(NCc1ccc(Cl)cc1)C1CCCN(S(=O)(=O)N2CCCCC2)C1 (stereo not given)	-29	103	·	·
26	O=C(NCCC1=CCCCC1)c1nc(Nc2ccc(F)cc2)c2ccccc2n1	-4	101	·	·
27	O=C1N=c2ccc(Br)cc2=C1c1sc(=S)n(NC(=O)c2ccccc2[N+](=O)[O-])c1O	-25	103	·	·
28	N#Cc1c(/N=C/c2ccc3c(c2)OCO3)oc(-c2ccccc2)c1-c1ccccc1	7	84*	74	31432
29	N#Cc1c(/N=C/c2ccc(Cl)cc2)oc(-c2ccccc2)c1-c1ccccc1	·	109	·	·
30	CCOC(=O)COc1ccc2c(C#N)c3ccccn3c2c1	-25	43*	64	44204
31	N#Cc1c2ccc(OCC(N)=O)cc2n2ccccc12	-17	103	·	·
32	CSc1ccc(Cl)c(C(=O)OCC(=O)N2CCc3ccccc32)c1	-2	·	·	·
33	CCN1C(C(=O)c2ccccc2)=C(NC(=O)c2ccc(Cl)cc2)c2ccccc2S1(=O)=O	-2	104	·	·
34	CN1C(C(=O)c2ccccc2)=C(NC(=O)c2ccccc2)c2ccccc2S1(=O)=O	-5	67*	66	42284
35	NS(=O)(=O)c1ccc(N=Cc2c(O)[nH]c3ccccc23)cc1	-58	95	·	·
36	COc1cc(OC)c(C2C=C(c3cccc(Br)c3)Nc3nc4ccccc4n32)cc1OC (stereo not given)	·	108	·	·
37	O=C(CSc1nnc2c3sc(N4CCCC4)nc3ncn12)Nc1ccc(F)c(F)c1	·	110	·	·
38	O=C(CSc1nnc2c3sc(N4CCCC4)nc3ncn12)Nc1ccc2c(c1)OCO2	·	30*	83	27926
39	CCC(C(=O)Nc1ccc(C)cn1)N1CCN(Cc2ccc(F)cc2)C(=O)C1=O (stereo not given)	-22	104	·	·
40	c1ccc(Cn2cc3c(-c4ccccc4)nnc-3c3ccccc32)cc1	-60	110	·	·
41	CCOc1ccc2c(c1)c1nnc(-c3ccccc3)c-1cn2Cc1ccccc1	-34	71*	64	45947
42	Cc1ccc(O)c(C=Nc2cc(C)on2)c1	-9	98	·	·
43	Cn1c(/N=C/c2c(O)ccc3ccccc23)nc2ccc(Br)cc21	20	23*	25*	14331*
44	CCc1ccc(N=Cc2c(O)ccc3ccccc23)cc1	-9	·	·	·
45	Cc1cc(N=Cc2c(O)ccc3ccccc23)no1	103*	-9.8*	13*	20466*
46	CCN(CC)c1ccc2cc(-c3nc(-c4ccc(Br)cc4)cs3)c(=Nc3ccccc3OC)oc2c1	·	145	·	·
47	CCOCCCNc1nc(C)nc2onc(C)c12	6	99	·	·
48	O=C(O)C(=Cc1ccc(-c2cccc(C(F)(F)F)c2)o1)C(=O)O	-16	84*	67	15696*
49	N#C/C(=C/c1ccc(-c2cccc(C(F)(F)F)c2)o1)c1ccc(C(=O)O)cc1	-52	111	·	·
50	COc1ccc(CN(C)C(=O)CN2C(=O)C3CC=CCC3C2=O)cc1OC (stereo not given)	-14	·	·	·
51	CC(=O)O/N=C1\Sc2ccccc2C1=O	19	68*	66	29965*
52	COc1ccc(N(/N=C2\Sc3ccccc3C2=O)C(C)=O)cc1	-3	110	·	·
53	CCN(CC)C(=O)c1cccc(NC(=O)Cc2coc3cc(C)ccc23)c1	8	·	·	·
54	CCOC(=O)c1sc2nc[nH]c(=O)c2c1C	·	103	·	·
55	CCOC(=O)c1cccc(NC(=O)c2sc3nc[nH]c(=O)c3c2C)c1	·	92	78	34553
56	Cc1cc(NCc2ccccc2)c2nncn2n1	-20	102	·	·
57	COC(=O)C1=C(C)NC2=C(C(=O)CCC2)C1c1cn[nH]c1 (stereo not given)	-21	99	·	·
58	COc1ccc(C2=N/C(=C/c3cc4ccccc4n3C(C)=O)C(=O)O2)cc1Br	·	113	·	·
59	CC(=O)n1c(/C=C2/N=C(c3cccs3)OC2=O)cc2ccccc21	-31	95	77	29162
60	Cc1ccc(-c2nn(CCC(=O)N3CCCC3)c(=O)c3ccccc23)cc1	·	99	·	·
61	Cc1ccc(-n2cc[nH]c(=O)c2=O)c(C)c1	-42	102	·	·
62	Cc1ccccc1-c1nn2c(=O)cc(N3CCN(C(=O)Nc4ccc(Cl)cc4)CC3)nc2s1	12	101	·	·
63	Cc1ccc(NC(=O)N2CCN(c3cc(=O)n4nc(-c5ccccc5C)sc4n3)CC2)cc1F	-11	84*	80	26514
64	CSc1nc(C)nc(Sc2ccccc2)c1C#N	10	125	·	·
65	N#Cc1c(Sc2ccccc2)ncc2cc3ccccc3nc12	-20	79*	67	50621
